Drawing on PubChem BioAssay AID581 (PCMD, 2007), this text covers inhibition for 2 compounds.

Amino acid sequences for entries named in this document (tags omitted). Residues count along the entry.
UniProt P08311, 21-244 limits assumed: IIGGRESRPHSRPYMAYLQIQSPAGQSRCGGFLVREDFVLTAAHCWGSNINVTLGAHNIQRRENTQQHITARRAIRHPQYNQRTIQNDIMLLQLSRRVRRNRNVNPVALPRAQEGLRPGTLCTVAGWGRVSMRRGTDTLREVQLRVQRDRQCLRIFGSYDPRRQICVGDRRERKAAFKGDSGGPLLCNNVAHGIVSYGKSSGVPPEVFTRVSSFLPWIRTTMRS

Only a part is listed here, and it is no random draw. Some of these compounds have results that are not shown, active ones among them. Calls of active or inactive are those of the source.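 Rule for the calls: active = inhibition above 20% in each of the two mixture wells holding the compound; inactive = inhibition of 20% or less in either well.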

The target in the assay is Cathepsin G (Homo sapiens) (UniProt P08311). The assay can be described thus: human cathepsin G inhibitors, primary screen, biochemical, pooled compound mixtures, AMC fluorescence (AID 581).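 Note: 0% = enzyme control without mixture and 100% = blank lacking enzyme.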 Conditions: purified enzyme, AMC-tetrapeptide fluorescence, active compounds read high, screened at 5 µM (by protocol).
Usually inhibition stands for the share of the control response that was lost under treatment. For `O=C(OC1CN2CCC1CC2)C(CO)(c1ccccc1)c1ccccc1` (configuration not stated), the inhibition is inactive: 4.8%.

For `CN(C)c1cccc(C(=O)NCC2(N(C)C)CCCCC2)c1`, the inhibition is inactive: 10.7%.
